One series addresses T1, human glucagon receptor (Homo sapiens, UniProt P47871).
T1 construct: expressed in transfected cells; host or cells: HEK-293
Briefly: cAMP response (HTRF) of HEK-293 cells stably expressing human glucagon receptor. In kind it is cell-based. The following applies: Table 5; cAMP, HEK-293; read-out: EC50 hGlucagon-R. (In general: In TR-FRET formats the signal depends on donor and acceptor labels being close together.)

By UniProt entry, the sequences of proteins in these tests, tags left out. Residues count along the entry.
UniProt P47871, 26-477: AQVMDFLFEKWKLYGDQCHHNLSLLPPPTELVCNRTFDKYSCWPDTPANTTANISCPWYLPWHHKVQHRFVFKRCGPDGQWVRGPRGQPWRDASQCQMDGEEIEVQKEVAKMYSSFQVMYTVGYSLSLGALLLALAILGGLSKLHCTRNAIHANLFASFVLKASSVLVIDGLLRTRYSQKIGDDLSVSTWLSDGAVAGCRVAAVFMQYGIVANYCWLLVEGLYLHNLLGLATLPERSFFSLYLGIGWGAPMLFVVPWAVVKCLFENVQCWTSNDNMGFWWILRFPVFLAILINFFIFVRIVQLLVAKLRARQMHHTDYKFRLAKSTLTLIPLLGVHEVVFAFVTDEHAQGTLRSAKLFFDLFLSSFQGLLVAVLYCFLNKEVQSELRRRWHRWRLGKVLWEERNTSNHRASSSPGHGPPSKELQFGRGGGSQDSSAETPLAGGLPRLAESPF
UniProt P43220, 24-463: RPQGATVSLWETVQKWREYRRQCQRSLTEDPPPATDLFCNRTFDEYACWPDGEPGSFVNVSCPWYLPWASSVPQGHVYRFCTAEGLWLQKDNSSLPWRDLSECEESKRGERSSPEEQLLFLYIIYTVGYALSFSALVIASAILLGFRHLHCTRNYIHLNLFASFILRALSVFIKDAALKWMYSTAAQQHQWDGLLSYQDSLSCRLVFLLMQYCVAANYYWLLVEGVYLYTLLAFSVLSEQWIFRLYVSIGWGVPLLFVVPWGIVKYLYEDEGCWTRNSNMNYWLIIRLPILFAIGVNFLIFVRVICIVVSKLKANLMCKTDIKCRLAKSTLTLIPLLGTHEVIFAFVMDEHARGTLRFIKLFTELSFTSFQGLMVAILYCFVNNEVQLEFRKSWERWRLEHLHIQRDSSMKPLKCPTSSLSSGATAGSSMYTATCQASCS

Another series deals with T2, human GLP-1 receptor (Homo sapiens, UniProt P43220).
T2 construct: expressed in transfected cells; host or cells: HEK-293
Briefly: cAMP response (HTRF) of HEK-293 cells stably expressing human GLP-1 receptor. As to conditions: Table 5; cAMP, HEK-293; read-out: EC50 hGLP-1R. In kind it is cell-based.

Another series can be described thus: physchem. In kind it is physicochemical. The protocol:
Prior to the testing of solubility and stability of a peptide batch, its content was determined. Therefore, two parameters were investigated, its purity (HPLC-UV) and the amount of salt load of the batch (ion chromatography). Since synthesized peptides contain primarily trifluoroacetate anions, only anion chromatography was performed.
. Therefore, solutions from solid samples were prepared in different buffer systems with a concentration of 1.0 mg/mL compound based on the previously determined content. HPLC-UV was performed after 2 h of gentle agitation from the supernatant, which was obtained by 20 min of centrifugation at 4000 rpm.
This analysis also served as starting point (t0) for the stability testing.
Instrument: Agilent 1100, column: X-Bridge C18 3.5 μm 2.1×150 mm (Waters), eluent: A: H20+500 ppm TFA/B: Methanol, flow: 0.55 mL/min, gradient: 0-5 min: 10-60% B; 5-15 min: 60-99% B; detection: 214 nm.

The results in this text go back to patent publication US20140100156A1 (SANOFI, priority 2012, published 2014).

One may read the EC50 as the concentration needed to bring the measured effect to its halfway point. In general, solubility refers to how much of the substance goes into solution per volume. Higher therefore signals a readily soluble substance.

`CCCCCCCCCCCCCCCC(=O)NCCCC[C@H](NC(=O)[C@H](CCC(N)=O)NC(=O)[C@H](CCCCN)NC(=O)[C@H](CO)NC(=O)[C@H](CC(C)C)NC(=O)[C@H](CC(=O)O)NC(=O)[C@H](CO)NC(=O)[C@@H](NC(=O)[C@H](Cc1ccccc1)NC(=O)[C@@H](NC(=O)CNC(=O)[C@H](CCC(N)=O)NC(=O)[C@@H](CO)NC(=O)[C@@H](N)Cc1c[nH]cn1)[C@@H](C)O)[C@@H](C)O)C(=O)N[C@@H](CCC(=O)O)C(=O)N[C@@H](CO)C(=O)N[C@@H](CCCNC(=N)N)C(=O)N[C@@H](C)C(=O)N[C@@H](C)C(=O)N[C@@H](CCC(N)=O)C(=O)N[C@@H](CC(=O)O)C(=O)N[C@@H](Cc1ccccc1)C(=O)N[C@H](C(=O)N[C@@H](CCC(=O)O)C(=O)N[C@@H](Cc1c[nH]c2ccccc12)C(=O)N[C@@H](CC(C)C)C(=O)N[C@@H](CCCCN)C(=O)N[C@@H](C)C(=O)NCC(=O)NCC(=O)N1CCC[C@H]1C(=O)N[C@@H](CO)C(=O)N[C@@H](CO)C(=O)NCC(=O)N[C@@H](C)C(=O)N1CCC[C@H]1C(=O)N1CCC[C@H]1C(=O)N1CCC[C@H]1C(=O)N[C@@H](CO)C(N)=O)[C@@H](C)CC` [compound 66]: the 50% effective concentration (EC50) at human glucagon receptor is 0.113 nM; at human GLP-1 receptor, 0.0084 nM. The solubility at 2 h in “physchem” (pH 4.5) and in “physchem” (pH 7.4) was over 1000 µg/mL throughout.
For the compound `CCCCCCCCCCCCCCCC(=O)N[C@@H](CCC(=O)NCCCC[C@H](NC(=O)[C@H](CCC(N)=O)NC(=O)[C@H](CCCCN)NC(=O)[C@H](CO)NC(=O)[C@H](CC(C)C)NC(=O)[C@H](CC(=O)O)NC(=O)[C@H](CO)NC(=O)[C@@H](NC(=O)[C@H](Cc1ccccc1)NC(=O)[C@@H](NC(=O)CNC(=O)[C@H](CCC(N)=O)NC(=O)[C@@H](CO)NC(=O)[C@@H](N)Cc1c[nH]cn1)[C@@H](C)O)[C@@H](C)O)C(=O)N[C@@H](CCC(=O)O)C(=O)N[C@@H](CO)C(=O)N[C@@H](CCCNC(=N)N)C(=O)N[C@@H](C)C(=O)N[C@@H](C)C(=O)N[C@@H](CCC(N)=O)C(=O)N[C@@H](CC(C)C)C(=O)N[C@@H](Cc1ccccc1)C(=O)N[C@H](C(=O)N[C@@H](CCC(=O)O)C(=O)N[C@@H](Cc1c[nH]c2ccccc12)C(=O)N[C@@H](CC(C)C)C(=O)N[C@@H](CCCCN)C(=O)N[C@@H](C)C(=O)NCC(=O)NCC(=O)N1CCC[C@H]1C(=O)N[C@@H](CO)C(=O)N[C@@H](CO)C(=O)NCC(=O)N[C@@H](C)C(=O)N1CCC[C@H]1C(=O)N1CCC[C@H]1C(=O)N1CCC[C@H]1C(=O)N[C@@H](CO)C(N)=O)[C@@H](C)CC)C(=O)O` [compound 70], the figures for the EC50 at human glucagon receptor and on human GLP-1 receptor were 0.0409 nM and 0.0065 nM, respectively. Besides, the solubility at 2 h in “physchem” (pH 4.5) and in “physchem” (pH 7.4) was over 1000 µg/mL in each case.
For `CCCCCCCCCCCCCCCC(=O)N[C@@H](CCC(=O)NCCCC[C@H](NC(=O)[C@H](CCC(N)=O)NC(=O)[C@H](CCCCN)NC(=O)[C@H](CO)NC(=O)[C@H](CC(C)C)NC(=O)[C@H](CC(=O)O)NC(=O)[C@H](CO)NC(=O)[C@@H](NC(=O)[C@H](Cc1ccccc1)NC(=O)[C@@H](NC(=O)CNC(=O)[C@H](CCC(N)=O)NC(=O)C(C)(C)NC(=O)[C@@H](N)Cc1c[nH]cn1)[C@@H](C)O)[C@@H](C)O)C(=O)N[C@@H](CCC(=O)O)C(=O)N[C@@H](CO)C(=O)N[C@@H](CCCCN)C(=O)N[C@@H](C)C(=O)N[C@@H](C)C(=O)N[C@@H](CCC(N)=O)C(=O)N[C@@H](CC(=O)O)C(=O)N[C@@H](Cc1ccccc1)C(=O)N[C@H](C(=O)N[C@@H](CCC(=O)O)C(=O)N[C@@H](Cc1c[nH]c2ccccc12)C(=O)N[C@@H](CC(C)C)C(=O)N[C@@H](CCCCN)C(=O)N[C@@H](C)C(=O)NCC(=O)NCC(=O)N1CCC[C@H]1C(=O)N[C@@H](CO)C(=O)N[C@@H](CO)C(=O)NCC(=O)N[C@@H](C)C(=O)N1CCC[C@H]1C(=O)N1CCC[C@H]1C(=O)N1CCC[C@H]1C(=O)N[C@@H](CO)C(N)=O)[C@@H](C)CC)C(=O)O` [compound 25], the concentration for a half-maximal effect (EC50) at human glucagon receptor turned out to be 0.0406 nM; on human GLP-1 receptor it was 0.0042 nM. Moreover, the solubility at 2 h in “physchem” (pH 4.5) and in the series “physchem” (pH 7.4) was over 1000 µg/mL throughout.
